Results on 3 molecules are retold here after PubChem BioAssay (Tox21).

Amino acid sequences for entries named in this document (tags omitted).
UniProt P08659, whole entry: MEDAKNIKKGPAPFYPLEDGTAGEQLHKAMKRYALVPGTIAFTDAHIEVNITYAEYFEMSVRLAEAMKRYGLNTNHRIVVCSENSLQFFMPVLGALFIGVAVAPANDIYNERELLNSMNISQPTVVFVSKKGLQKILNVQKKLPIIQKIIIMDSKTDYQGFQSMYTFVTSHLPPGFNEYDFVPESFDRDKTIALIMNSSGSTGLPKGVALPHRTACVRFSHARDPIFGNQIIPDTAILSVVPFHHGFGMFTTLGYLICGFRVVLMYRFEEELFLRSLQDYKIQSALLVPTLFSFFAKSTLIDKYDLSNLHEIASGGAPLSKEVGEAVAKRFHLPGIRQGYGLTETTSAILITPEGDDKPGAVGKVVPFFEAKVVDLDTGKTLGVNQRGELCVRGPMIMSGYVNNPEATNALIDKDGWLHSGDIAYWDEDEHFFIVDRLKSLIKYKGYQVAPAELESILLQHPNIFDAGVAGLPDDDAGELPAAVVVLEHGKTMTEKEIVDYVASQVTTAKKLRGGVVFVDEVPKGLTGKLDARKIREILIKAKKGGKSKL
UniProt Q14994, whole entry: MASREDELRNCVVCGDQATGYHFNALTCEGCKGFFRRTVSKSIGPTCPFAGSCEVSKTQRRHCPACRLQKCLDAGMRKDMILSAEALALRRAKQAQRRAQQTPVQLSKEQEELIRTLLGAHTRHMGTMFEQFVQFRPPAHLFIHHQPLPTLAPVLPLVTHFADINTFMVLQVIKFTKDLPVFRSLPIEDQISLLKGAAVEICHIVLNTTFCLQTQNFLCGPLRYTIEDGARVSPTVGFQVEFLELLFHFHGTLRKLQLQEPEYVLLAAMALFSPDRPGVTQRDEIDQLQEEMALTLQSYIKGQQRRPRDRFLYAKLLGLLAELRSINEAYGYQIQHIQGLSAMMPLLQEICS
UniProt P16473, whole entry: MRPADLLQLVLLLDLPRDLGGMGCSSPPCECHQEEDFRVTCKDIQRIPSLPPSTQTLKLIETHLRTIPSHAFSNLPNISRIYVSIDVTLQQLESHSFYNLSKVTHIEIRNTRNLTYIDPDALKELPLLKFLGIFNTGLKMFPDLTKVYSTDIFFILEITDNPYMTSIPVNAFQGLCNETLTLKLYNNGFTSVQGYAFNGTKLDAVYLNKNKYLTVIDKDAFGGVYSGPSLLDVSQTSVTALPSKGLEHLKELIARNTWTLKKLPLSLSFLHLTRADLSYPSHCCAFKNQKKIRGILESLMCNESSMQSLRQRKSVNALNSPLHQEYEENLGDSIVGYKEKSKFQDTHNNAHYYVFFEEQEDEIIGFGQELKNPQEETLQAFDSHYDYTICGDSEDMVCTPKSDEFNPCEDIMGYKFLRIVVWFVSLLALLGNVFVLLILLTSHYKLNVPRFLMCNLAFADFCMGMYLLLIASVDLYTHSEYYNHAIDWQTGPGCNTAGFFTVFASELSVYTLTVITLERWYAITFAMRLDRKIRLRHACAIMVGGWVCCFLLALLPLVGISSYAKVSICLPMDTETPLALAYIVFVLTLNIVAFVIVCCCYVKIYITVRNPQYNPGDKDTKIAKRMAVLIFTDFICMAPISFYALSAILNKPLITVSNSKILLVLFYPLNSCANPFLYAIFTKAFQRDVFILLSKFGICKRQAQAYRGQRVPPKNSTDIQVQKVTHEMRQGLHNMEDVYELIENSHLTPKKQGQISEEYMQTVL

Where “and” joins values, the source holds several entries; their conditions need not be identical. Identical values can stand only once. Only a part is listed here, and it is no random draw. Results filed as inconclusive are left out. A structure can be active in one record and inactive in another. Calls of active or inactive are those of the source. Unless noted, the call rests on the fitted dose curve; in most records, active means well fitted curve in the direction sought with a large enough effect in the repeat runs; inconclusive means weak or mixed curves; inactive means no such curve, though single readings can be large; an effect the other way counts as inactive or inconclusive.

Test [1] in a line: qHTS assay to identify small molecule antagonists of the estrogen related receptor (ERR) signaling pathway from Tox21 library - cell viability counter screen (AID 1224834). Further: nearly all actives have a fitted effect of over 30% in size. To be noted: ERR reporter cells viability, CellTiter-Fluor, 17.5 h; at 92.4 µM (top of the series). In short, it runs like this:
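ERR reporter cells were plated 6 h before compound addition, then exposed to test compounds in DMSO for 17.5 h at 37 C. Viability was read as CellTiter-Fluor fluorescence after a 30-minute incubation at 37 C.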
A general note: In qHTS, concentration-response curves come from the screen itself.

Test [2] addresses Luciferin 4-monooxygenase (Photinus pyralis) (UniProt P08659). The test can be described thus: qHTS assay to identify small molecule inhibitors of firefly luciferase (AID 1224835). Further: nearly all actives have a fitted effect of over 25% in size. The procedure, abridged: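 Biochemical qHTS: compounds run as interplate titrations against purified firefly enzyme, with D-luciferin and ATP each at its KM concentration. Light output recorded by CCD imaging.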

The nature of test [3]: qHTS assay to identify small molecule agonists of the constitutive androstane receptor (CAR) signaling pathway - cell viability counter screen (AID 1224836). Further: nearly all actives have a fitted effect of over 45% in size. To be noted: HepG2-CYP2B6-hCAR viability, CellTiter-Fluor, 23 h; at 92.4 µM (top of the series); PK11195 added to every well. The procedure, abridged:
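Double-stable HepG2 hepatoma cells (hCAR plus CYP2B6-2.2kb) are treated for 23 h at 37 C with test compounds in 15-point concentration series. PK11195 at 0.75 uM final is co-added. Cell viability is quantified by CellTiter-Fluor.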

Test [4] is described as follows: qHTS assay to identify small molecule antagonists of the constitutive androstane receptor (CAR) signaling pathway - cell viability counter screen (AID 1224837). Further: nearly all actives have a fitted effect of over 45% in size. To be noted: HepG2-CYP2B6-hCAR viability, CellTiter-Fluor, 23 h, co-treated with 50 nM CITCO; at 92.4 µM (top of the series) unless noted. In short, it runs like this:
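HepG2 cells stably expressing hCAR and a CYP2B6-2.2kb reporter were plated and pre-incubated 4 hr at 37 C/5% CO2, then given compounds at 15 concentrations plus 50 nM CITCO (final). After 23 hr, viability was read by CellTiter-Fluor fluorescence.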

Test [5] addresses Nuclear receptor subfamily 1 group I member 3 (Homo sapiens) (UniProt Q14994). The test can be described thus: qHTS assay to identify small molecule antagonists of the constitutive androstane receptor (CAR) signaling pathway (AID 1224838). Further: nearly all actives have a fitted effect of over 40% in size. The following applies: HepG2-CYP2B6-hCAR luciferase, CITCO-stimulated, 24 h; at 92.4 µM (top of the series).
Test [6] has the same target. The test can be described thus: qHTS assay to identify small molecule agonists of the constitutive androstane receptor (CAR) signaling pathway (AID 1224839).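 Further: HepG2 cells stably carrying human CAR and a CYP2B6 luciferase reporter; nearly all actives have a fitted effect of over 15% in size.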
Test [7] is described as follows: qHTS assay to identify small molecule antagonists of the estrogen related receptor signaling pathway with the pleiotropic PPARgamma coactivator (PGC) from Tox21 10K library - cell viability counter screen (AID 1224840; active means well fitted cell-killing curve with a large enough effect in the repeat runs, not every such curve was filed as active; further: nearly all actives have a fitted effect of over 40% in size). The following applies: PGC/ERR reporter cells viability, CellTiter-Fluor, 17.5 h; at 92.4 µM (top of the series). The procedure, abridged:
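PGC/ERR cells were seeded at 2,000 cells/well and left 6 hours at 37 C/5% CO2 before pin-tool addition of compounds in DMSO. After 17.5 hours at 37 C, CellTiter-Fluor was added and fluorescence read 30 minutes later.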

The nature of test [8]: qHTS assay to identify small molecule antagonists of the estrogen related receptor signaling pathway with the pleiotropic PPARgamma coactivator (PGC) from Tox21 10K library (AID 1224841; call rule not given here; further: actives are mostly falling curves and most rising ones were filed inactive; nearly all actives have a fitted effect of over 50% in size).
The target of test [9] is Thyrotropin receptor (Homo sapiens) (UniProt P16473). The test can be described thus: qHTS assay to identify small molecule agonists of the thyroid stimulating hormone receptor (TSHR) signaling pathway (AID 1224843; calls by dose curve; further: nearly all actives have a fitted effect of over 45% in size). To be noted: TSHR-HEK293 cells, cAMP HTRF, agonist mode, 30 min; at 92.4 µM (top of the series).
A short description of test [10]: qHTS assay to identify small molecule agonists of the hypoxia (HIF-1) signaling pathway - cell viability counter screen (AID 1224844; calls by dose curve; further: nearly all actives have a fitted effect of over 50% in size). To be noted: HRE-bla ME-180 viability, CellTiter-Glo luminescence, 17 h; at 76.8 µM (top of the series) unless noted. The procedure, abridged:
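HRE-bla ME-180 cells in medium with 0.5% dialyzed FBS were preincubated 5 hrs at 37C, exposed to compounds for 17 hrs, then viability was read as CellTiter-Glo luminescence after 30 min at room temperature, in the reporter wells.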

A short description of test [11]: qHTS assay to identify small molecule agonists of the hypoxia (HIF-1) signaling pathway (AID 1224846; active means well fitted activation curve with a large enough effect in the signal ratio in the repeat runs, not every such curve was filed as active; the % refers to the signal ratio). To be noted: HRE-bla ME-180 cells, beta-lactamase ratio, 17 h; at 76.8 µM (top of the series). The procedure, abridged:
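HRE-bla ME-180 cells (beta-lactamase reporter under hypoxia response element) were plated at 2,000 cells/well in medium with 0.5% dialyzed FBS, rested 5 hrs, then given compounds in DMSO for 17 hrs at 37C, 5% CO2. Reporter induction was read with CCF4-AM FRET substrate.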

Test [12] can be described thus: qHTS assay to identify small molecule agonists of H2AX - cell viability counter screen (AID 1224847; calls by dose curve;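 further: wild-type CHO-K1 cells; top concentration of the series differs between compounds; nearly all actives have a fitted effect of over 30% in size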). To be noted: CHO-K1 viability, CellTiter-Glo luminescence, 3 h; at 154 µM (top of the series) unless noted. In short, it runs like this:
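For this counter screen, overnight-attached CHO-K1 cells received test compounds (15 concentrations, 0.76% DMSO final); 3 hr later at 37C, CellTiter-Glo reagent was added and luminescence recorded after 30 min at room temperature.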

The nature of test [13]: qHTS assay to identify small molecule antagonists of the estrogen related receptor (ERR) signaling pathway from Tox21 library (AID 1224848). Further: nearly all actives have a fitted effect of over 50% in size. The procedure, abridged: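 Luminescent reporter read-out (ONE-Glo) from NTP's ERR cell line after 18 h treatment at 37 C with DMSO-dissolved Tox21 compounds; cells pre-plated 6 h beforehand at 2,000 per well.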
Test [14] can be described thus: qHTS assay to identify small molecule agonists of the estrogen related receptor (ERR) signaling pathway from Tox21 library (AID 1224849; calls by dose curve; further: nearly all actives have a fitted effect of over 15% in size). The following applies: ERR reporter cell line, ONE-Glo luciferase, 18 h; at 92.4 µM (top of the series). In short, it runs like this:
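ERR reporter cell line (NTP) seeded, rested 6 h at 37 C/5% CO2, then pinned with Tox21 compounds in DMSO. After 18 h at 37 C, ONE-Glo luciferase luminescence was read following 30 min at room temperature.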

Test [15] can be described thus: qHTS RealTime-Glo MT Cell Viability Assay in HepG2 cells - 24 hour (AID 1224867). Further: nearly all actives have a fitted effect of over 50% in size. The following applies: RealTime-Glo luminescence, at 76.8 µM (top of the series). In short, it runs like this: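 Viability was tracked continuously by NanoLuc luminescence from prosubstrate reduced by living HepG2 cells, at successive time points over 40 h of compound exposure. Cells with reagent were preincubated 5 h at 37 °C before compound addition.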

Test [16] is described as follows: qHTS RealTime-Glo MT Cell Viability Assay in HEK293 cells - 32 hour (AID 1224868). To be noted: RealTime-Glo luminescence, at 76.8 µM (top of the series). In short, it runs like this:
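Viability tracked continuously by luminescence as live cells reduce a prosubstrate for NanoLuc; HEK293 cells preincubated 5 h, compound-treated at 37 C, and read at 0, 8, 16, 24, 32 and 40 h.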

Test [17] can be described thus: A CellTox Green Cytotoxicity Assay to monitor cytotoxicity in HEK293 cells - 0 hour (AID 1224869). Further: nearly all actives have a fitted effect of over 50% in size. Further: potency means the concentration at half of the fitted maximal effect. The procedure, abridged:
(§1)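 HEK293 cells premixed with CellTox Green dye were seeded at 600 cells/well and left 5 h at 37 C/5% CO2 before pin transfer of 23 nL compound in DMSO. Fluorescence from dye bound to dead-cell DNA was read during 40 h treatment.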

A short description of test [18]: qHTS RealTime-Glo MT Cell Viability Assay in HepG2 cells - 8 hour (AID 1224873). Further: nearly all actives have a fitted effect of over 55% in size. To be noted: RealTime-Glo luminescence; at 76.8 µM (top of the series) unless noted. The procedure, abridged: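 HepG2 cells (600/well) mixed with RealTime-Glo MT reagent, settled 5 h at 37 C/5% CO2 before compound addition. Nonlytic NanoLuc luminescence from viable-cell prosubstrate reduction read repeatedly during 40 h treatment at 37 C.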

Test [19] can be described thus: A CellTox Green Cytotoxicity Assay to monitor cytotoxicity in HEK293 cells - 24 hour (AID 1224875). Further: nearly all actives have a fitted effect of over 45% in size. The procedure, abridged:
as §1

Test [20] in a line: qHTS assay to identify small molecule agonists of the estrogen related receptor signaling pathway with the pleiotropic PPARgamma coactivator (PGC) from Tox21 10K library (AID 1224842). Further: nearly all actives have a fitted effect of over 15% in size. The following applies: PGC/ERR reporter cell line, luciferase ONE-Glo, 18 h; at 92.4 µM (top of the series). The procedure, abridged: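 PGC/ERR reporter cell line, 2,000 cells per well, incubated 6 h at 37 C before 23 nL compound in DMSO was added. After 18 h at 37 C, One-Glo luminescence read following 30 min at room temperature.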
On the % scale 0 is the no-effect control and ±100 the full control effect.

`CN(C)CCCl`: the viability change, negative = cytotoxic in test [1] is inactive: -0.0022%; in test [3] it was inactive: 2.69%; in test [7], inactive: 1.23%; in test [18] it was inactive: 1.12%. In addition, the Potency entry in test [2], in test [6], in [8], in [13], in [17] and in [19] was “inactive” in each case. Also, the activity change, negative = cytotoxicity in [4] was inactive: -5.05%; in test [10], inactive: -21.6%; in test [12] it was inactive: 2.57%; in test [15] it was inactive: 3.14%. Also, the activity, negative = inhibition in [5] is inactive: 12.1%. In addition, the values for the activation in [9] and in [11] were inactive: -0.368% and inactive: -0.564%, respectively. The activity change, positive = activation in [14] was inactive: 1.07%. The activity change, negative = cytotoxic in test [16] was inactive: 2.47%.
Turning to `O=[N+]([O-])[O-].[NH4+]`, the viability change, negative = cytotoxic was inactive: 6.79% and inactive: 0.287% in [1]; inactive: 0.946% and inactive: -1.8% in [3]; inactive: 3.37% and inactive: 0.685% in [7]; inactive: 1.49% and inactive: 2.07% in [18]. Further, the Potency result in test [2] is “inactive”. Further, the activity change, negative = cytotoxicity in [4] was inactive: 0.494% and inactive: 3.61%; in test [10], inactive: 6.5% and inactive: -4.56%; in test [12], inactive: 0.546% and inactive: 3.42%. The activation in test [11] is inactive: -0.75% and inactive: -1.8%. Moreover, in [16], the activity change, negative = cytotoxic was inactive: 2.73% and inactive: 0.791%. Besides, the Potency result in test [17] was “inactive and active: 27.5 µM”.
`COc1ccc([N+](=O)[O-])cc1[N+](=O)[O-]`: the viability change, negative = cytotoxic is inactive: 0.326% in test [1], inactive: 9.01% in test [3], inactive: -0.488% in [7] and inactive: -20% in test [18]. Moreover, the Potency result in [2], in [6], in [8], in test [13], in [17] and in test [19] was “inactive” throughout. Besides, the activity change, negative = cytotoxicity is inactive: 0.542% in test [4], inactive: 1.48% in test [10], inactive: -0.179% in [12] and inactive: -9.03% in [15]. The activity, negative = inhibition in test [5] was inactive: 28.3%. Besides, the values for the activation in [20], in test [9] and in test [11] were inactive: -1.24%, inactive: 8.23% and inactive: 0.628%, respectively. Further, the activity change, positive = activation in [14] was inactive: -3.37%. Further, the activity change, negative = cytotoxic in test [16] is inactive: 0.515%.
